These results are taken from patent publication US20220317138A1, “METHODS FOR DETERMINING THE CONCENTRATION OF A CARBAPENEM ANTIBIOTIC IN A BIOLOGICAL SAMPLE” (priority 2019, published 2022).

By UniProt entry, the sequences of proteins in these tests, tags left out. Residues count along the entry.
UniProt Q6XEC0, 23-265 limits assumed: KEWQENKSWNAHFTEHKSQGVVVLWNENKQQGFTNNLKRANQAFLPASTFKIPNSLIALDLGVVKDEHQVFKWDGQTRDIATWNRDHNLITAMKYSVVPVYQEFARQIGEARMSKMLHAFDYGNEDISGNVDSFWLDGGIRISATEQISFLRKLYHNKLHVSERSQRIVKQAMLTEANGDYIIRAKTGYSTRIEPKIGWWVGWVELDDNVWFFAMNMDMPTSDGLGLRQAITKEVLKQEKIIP

The target in the assay is beta-lactamase class D OXA-48 (Klebsiella pneumoniae, UniProt Q6XEC0). The following applies: second drug alone in ultrafiltrated serum at 10 times recommended blood concentration, result expressed as meropenem concentration, theoretically zero.

Only a part of the results on these compounds is given; other tests are left out.

On to `CCC(=O)N(c1ccccc1)C1(COC)CCN(CCc2cccs2)CC1`, for which the “Average [meropenem]” value (average of three replicates) is on record as 0.08 mg/L. Where the note is “replicate 1”, the “[meropenem] (mg/L) Replicates 1” value is 0.00 mg/L. In addition, under “replicate 2”, the “[meropenem] (mg/L) Replicates 2” value was determined as 0.12 mg/L. The “[meropenem] (mg/L) Replicates 3” value (replicate 3) worked out at 0.12 mg/L.
